The list is not random: actives were taken first. Their share in the collection is about 0.92%.
GALK inh: blocks human galactokinase activity. P51570. Purified GALK, Kinase-Glo residual ATP luminescence. Potency, µM (doses to about 57.5 µM), usual class: inhibitors. actives 0.007% (n = 270,000). AID 1868
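Compounds were pin-transferred into ATP buffer (35 uM final), then GALK plus galactose (5 nM, 100 uM final) was added. After 1 h at room temperature, Kinase-Glo Plus was added and luminescence read after 10 min.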
miR-21 reporter: miR-21 reporter, rising signal; HeLa miR-21 FLuc reporter, luciferase, 48 h; Potency, µM (titrated, usually from 38.3 µM); 340,000 tested, under 10 active; AID 2288; active = well fitted rising curve with a large enough effect; inconclusive = small, poorly fitted or top-dose-only effect; inactive = no such curve, though single readings can be large or run the other way;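 also: miR-21 action dims this reporter so a rising signal means less miR-21 action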
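HeLa cells stably expressing CMV-driven firefly luciferase with a downstream miR-21 binding sequence, endogenously expressing miR-21, were treated with titrations (up to about 40uM final) for 48 hours at 37 degree Celsius. Luciferase luminescence was read after lysis.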
RXFP1 ag: RXFP1 (human) receptor agonism. Q9HBX9. HEK293T-RXFP1 cAMP TR-FRET, 30 min; response scale: percent of porcine relaxin response, buffer zero. Potency, µM (top dose mostly 57.5 µM), hits mostly activators. actives 0.3% (n = 370,000); note: nearly all actives have a fitted effect of over 60% in size
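HEK293T cells stably expressing RXFP1 were pretreated with the PDE4 inhibitor Ro 20174, exposed to compounds for 30 min at 37C, lysed, and cAMP was read by TR-FRET. Data normalized to buffer (basal) and 29 nM porcine relaxin (100%).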
KinaseGlo FLuc: blocks Kinase-Glo luciferase, a counter-screen artifact | Q27757 | Potency, µM (titrated, usually from 38.3 µM), hits mostly inhibitors | Kinase-Glo luciferase, ATP luminescence, 8 min | actives 0.28% (n = 200,000); note: nearly all actives have a fitted effect of over 60% in size
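Kinase-Glo luciferase light output from ATP and luciferin was measured with 10 uM ATP, within the enzyme's linear range. Buffer: 50 mM imidazole pH 7.2, 50 mM KCl, 7 mM MgCl2, 0.01% Tween 20, 0.05% BSA; luminescence read after 8 min at ambient temperature.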
PKM2 activator: PKM2 (human) enzyme activation. P14618. purified PKM2, Kinase-Glo ATP luminescence, activation; response scale: 0% is enzyme alone, no compound. Potency, µM (titrated, usually from 57.5 µM), most hits filed as activators. actives 0.34% (n = 260,000); note: nearly all actives have a fitted effect of over 55% in size
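Kinase-Glo luminescence reports ATP generated from ADP (0.1 mM) and PEP (0.5 mM) by purified hPK-M2 after 1 h at room temperature, pH 7.2 imidazole buffer; intermediate enzyme activity allows detecting inhibitors and activators.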
RXFP1 antagonist: antagonists of human relaxin receptor RXFP1. Q9HBX9. HEK293-RXFP1, relaxin-stimulated cAMP HTRF, 30 min; stronger effect = lower value. activity change, negative = inhibition, % at 57.5 µM. actives 0.59% (n = 350,000);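 active = activity change of -60% or lower, but not beyond a set lower limit; inconclusive = change between -60% and -40%, or beyond the set limit; inactive = change above -40%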
Numbers stand for hits; 0 = inactive; ? = inconclusive; - = no result given; [ ] = another dose, or the depositor's remark. Unless noted, calls come from the whole dose curve; as a rule, active = well fitted curve in the direction sought with a large enough effect; inconclusive = small, poorly fitted or top-dose-only effect, or another doubt; inactive = no such curve, though single readings can be large; an effect the other way counts as inactive or inconclusive.

SMILES	GALK inh	miR-21 reporter	RXFP1 ag	KinaseGlo FLuc	PKM2 activator	RXFP1 antagonist
COc1ccc(C(=O)NCCN2CCN(C(=O)c3ccc(OC)c(OC)c3)CC2)cc1OC	0	0	0	-	0	0
COc1ccc(C(=O)NCCCN2CCN(CCCNC(=O)c3ccc(OC)c(OC)c3)CC2)cc1OC	-	-	0	-	-	-75
C=C/C1=C/Cc2ccccc2[C@H](C[N+](=O)[O-])C(C(C)=O)(C(=O)OC)C1 (stereo partly drawn)	-	-	-	0	-	-
CCc1ccc(Cc2cnc(NC(=O)C3=NCCN3)s2)cc1	0	0	0	0	0	-116
Cc1ccccc1OCC(=O)Nc1sc(C(=O)Nc2cccc(C)c2C)c(C)c1C#N	0	0	8.9µM	0	0	0
COc1ccccc1NC(=O)c1sc(NC(=O)c2ccco2)c(C#N)c1C	0	0	0	0	0	0
O=C(NCc1ccc2c(c1)OCO2)O[C@@H]1C(=O)c2cc(Br)ccc2O[C@H]1c1ccc2c(c1)OCO2	-	-	-	0	-	-
CCOC(=S)SCC(=O)Nc1nccs1	0	0	0	0	18µM	0
CCOC(=O)c1ccc(CC(=O)c2ccc(O)cc2O)o1	0	0	0	0	0	0
CCC(=O)Oc1ccc(C/C(=N\O)c2ccc(O)cc2O)o1	0	0	0	0	0	-60
CCCCc1nc2c(c3c1C[C@H](C)OC3)CN(S(=O)(=O)c1c(C)noc1C)CC2	-	-	-	0[7.66 µM]	0[11.5 µM]	-
CC(C)c1nc2sc3c(SCC(=O)NCc4ccco4)ncnc3c2c2c1CCC2	0	0	?	0	35µM	0
c1ccc2c(c1)Cn1c-2nc2ccccc21	0	0	0	11µM	0	0
O=C(CSc1nnc(-c2ccc(O)cc2)o1)Nc1cccc(O)c1	0	0	0	-	7.9µM	0
C=C1C2c3ccccc3C(CC2(C)O[Si](C)(C)C)N1C(=O)OC (stereo not drawn)	-	-	-	0[7.66 µM]	0[11.5 µM]	-
Cc1c(C(=O)NCc2ccccc2Cl)sc2nc3n(c(=O)c12)CCCCC3	-	0	0	-	-	0
CC(C)=CCC/C(C)=C\COc1c2ccoc2cc2oc(=O)ccc12	-	-	-	0	-	-
Nc1ccccc1-c1n[nH]c(=S)s1	0	0	28µM	0	0	0
O=C(Nc1cccc(NC(=O)c2cccs2)c1)c1ccc(Br)cc1	0	0	0	-	0[11.5 µM]	-71
O=C(Nc1ccc(NC(=O)c2cccs2)cc1)c1cccc(Br)c1	-	0	0	-	-	0
CCCOC(=O)c1c(-c2ccccc2)c(-c2ccccc2)nn(C)c1=O	-	?	0	-	-	-65
CCC(C)NC(=O)CN(c1ccc(Cl)c(Cl)c1)S(C)(=O)=O (stereo not drawn)	0	0	0	-	0	0
O=C(CSc1nc2c(c(=O)[nH]1)CN(Cc1ccc(F)cc1)CC2)Nc1ccc(F)cc1	0	0	0	0	16µM	0
Cc1ccc2ccc(Cl)cc2n1	-	-	-	-	-	0
COc1ccc(NS(=O)(=O)c2ccc3c(c2)oc(=O)n3C)cc1Cl	0	0	0	-	-	0
SMILES	GALK inh	miR-21 reporter	RXFP1 ag	KinaseGlo FLuc	PKM2 activator	RXFP1 antagonist
Cn1c(=O)oc2cc(S(=O)(=O)Nc3ccc4c(c3)OCO4)ccc21	0	0	0	0	7.9µM	0
CCc1cccc(NS(=O)(=O)c2ccc3c(c2)oc(=O)n3C)c1	0	0	0	0	3.2µM	0
COc1ccc(S(=O)(=O)Nc2ccc3c(c2)OCO3)cc1	0	0	0	0	25µM	0
COc1ccc(S(=O)(=O)Nc2ccc3c(c2)OCO3)cc1C	0	0	0	0	0	0
Cn1c(=O)oc2cc(S(=O)(=O)Nc3ccccc3)ccc21	0	0	0	0	2.5µM	0
Cn1c(=O)oc2cc(S(=O)(=O)Nc3cccc(C(=O)O)c3)ccc21	0	0	0	0	0	0
COc1ccc2c(c1)CC(C(=O)Nc1cc(Cl)ccc1C)CO2 (stereo not drawn)	-	0	0	-	-	0
O=C(Nc1cccc(C(F)(F)F)c1)c1noc2c1CCc1ccccc1-2	-	0	0	-	-	0
O=C(Nc1cccc(O)c1)c1noc2c1CCc1ccccc1-2	0	0	0	14µM	0	0
CC(NC(=O)C(=O)N1CCCCC1)C(c1cccs1)N1CCN(Cc2ccccc2)CC1 (stereo not drawn)	0	0	0	-	-	-66
